Reference: US9359338B2, “Cyclopropanecarboxamido-substitute aromatic compounds as anti-tumor agents” (Crown Bioscience Inc. (Taiwan), priority 2012, dated 2016)

Chains of the proteins cited; added tags and fusions are not shown. Residues count along the entry.
UniProt P35968, 790-1356 limits assumed: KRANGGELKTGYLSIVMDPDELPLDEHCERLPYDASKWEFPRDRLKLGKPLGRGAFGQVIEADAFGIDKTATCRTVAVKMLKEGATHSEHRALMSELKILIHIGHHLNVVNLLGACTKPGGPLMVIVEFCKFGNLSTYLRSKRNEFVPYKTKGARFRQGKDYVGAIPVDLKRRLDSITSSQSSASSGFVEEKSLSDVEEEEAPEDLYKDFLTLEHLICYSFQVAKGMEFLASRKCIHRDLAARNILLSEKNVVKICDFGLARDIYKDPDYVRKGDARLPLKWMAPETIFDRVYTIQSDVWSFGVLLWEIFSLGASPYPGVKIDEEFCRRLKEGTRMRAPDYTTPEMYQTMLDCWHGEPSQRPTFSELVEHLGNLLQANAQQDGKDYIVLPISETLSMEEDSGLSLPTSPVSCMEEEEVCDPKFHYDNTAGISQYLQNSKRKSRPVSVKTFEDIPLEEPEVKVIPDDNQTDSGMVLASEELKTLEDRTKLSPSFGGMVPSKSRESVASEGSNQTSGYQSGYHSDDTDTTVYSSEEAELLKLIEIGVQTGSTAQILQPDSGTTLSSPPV
UniProt P15056, 416-766 limits assumed: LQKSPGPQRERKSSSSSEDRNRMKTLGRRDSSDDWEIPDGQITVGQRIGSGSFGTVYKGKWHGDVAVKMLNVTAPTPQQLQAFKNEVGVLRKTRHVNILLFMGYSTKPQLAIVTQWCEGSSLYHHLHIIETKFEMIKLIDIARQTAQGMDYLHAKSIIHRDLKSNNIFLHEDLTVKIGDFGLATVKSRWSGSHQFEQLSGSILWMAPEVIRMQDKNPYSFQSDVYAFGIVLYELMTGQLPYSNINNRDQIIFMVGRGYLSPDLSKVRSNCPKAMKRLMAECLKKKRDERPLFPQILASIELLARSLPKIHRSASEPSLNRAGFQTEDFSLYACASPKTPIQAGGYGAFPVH

Assays:
KDR kinase (790-1356 AA) = KDR kinase (790-1356 AA) (Homo sapiens (Human), UniProt P35968); test: Inhibitory activity at KDR kinase (Lance Ultra Ulight-TK assay); conditions: read-out: KDR IC50
B-Raf kinase = B-Raf kinase (Homo sapiens (Human), UniProt P15056); test: Inhibitory activity at B-Raf kinase (ADP-GLO assay)
pERK in MDA-MB-231 cells = test: Inhibitory activity at pERK (In Cell Western, MDA-MB-231 cells); conditions: read-out: MDA-MB-231 pERK IC50
PLC-PRF-5 cells = test: Inhibition of proliferation of PLC-PRF-5 cells (ATPlite); conditions: read-out: PLC-PRF-5 cell proliferation IC50

IC50 (KDR kinase (790-1356 AA)) [µM] | IC50 (B-Raf kinase; read-out: B-Raf IC50, B-Raf kinase) [µM] | IC50 (pERK in MDA-MB-231 cells) [µM] | SMILES | IC50 (PLC-PRF-5 cells) [µM] | in vitro IC50 at B-Raf relative to sorafenib (B-Raf kinase; potency compared with sorafenib)
0.0095 | 0.021 | 0.0071 | Cc1cc(NC(=O)Nc2ccc(F)c(C(C)(F)F)c2)ccc1Oc1ccnc(NC(=O)C2CC2)c1 | 0.404 | –
– | – | – | O=C(Nc1ccc(Oc2ccnc(NC(=O)C3CC3)c2)cc1)Nc1ccc(Cl)c(C(F)(F)F)c1 [Exe. 137] | – | four times more potent than that of sorafenib
